Experimental data as given in ChEMBL document CHEMBL2169811, “Oncoepigenomics: making histone lysine methylation count” (Eur J Med Chem, 2012).

By UniProt entry, the sequences of proteins in these tests, tags left out.
UniProt Q99873, whole entry: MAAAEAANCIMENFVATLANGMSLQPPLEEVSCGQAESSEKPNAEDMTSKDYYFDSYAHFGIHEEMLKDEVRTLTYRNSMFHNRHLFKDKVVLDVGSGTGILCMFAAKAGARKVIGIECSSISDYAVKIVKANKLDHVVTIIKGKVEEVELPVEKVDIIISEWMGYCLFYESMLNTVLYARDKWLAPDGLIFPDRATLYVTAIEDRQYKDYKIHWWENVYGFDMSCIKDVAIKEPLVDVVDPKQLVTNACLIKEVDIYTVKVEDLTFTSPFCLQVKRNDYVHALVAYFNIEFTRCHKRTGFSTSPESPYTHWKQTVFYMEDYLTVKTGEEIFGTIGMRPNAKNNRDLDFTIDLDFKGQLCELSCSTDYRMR

Biological target: Protein arginine N-methyltransferase 1 (Homo sapiens, UniProt Q99873)

**Q.** How did the IC50 turn out when `CNc1ncnc2c1ncn2[C@@H]1O[C@H](CN(CCI)CCC[C@H](N)C(=O)O)[C@@H](O)[C@H]1O` was run?
**A.** The IC50 was > 100 µM.
